## scFv variants of Ab-91 (heavy chain) against a SARS-CoV-2 spike peptide

Source: Engelhart et al. 2022 (doi:10.1038/s41597-022-01779-4), MIT Lincoln Laboratory and A-Alpha Bio; data file from the FLAb repository.

Target peptide (SARS-CoV-2 spike, HR2 region): PDVDLGDISGINAS

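Phage display of a naive human antibody library on the peptide gave the parent. In library AAYL51, one, two or three CDR residues were substituted; doubles and triples were drawn at random. The assay is AlphaSeq: two haploid yeast populations carry antibody and antigen on their surface. Binding brings cells together so that they mate, and sequencing counts the barcode pairs among the diploids. The ratio of observed to expected reads was calibrated, replicate by replicate, on BCL2-family standards whose Kd was known from biolayer interferometry. Each pool was mated in three replicate cultures.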

Parent: Ab-91, a human scFv built as VL, a 15-residue (Gly4Ser)3 linker, VH. Only the CDRs of the heavy chain vary.
VL: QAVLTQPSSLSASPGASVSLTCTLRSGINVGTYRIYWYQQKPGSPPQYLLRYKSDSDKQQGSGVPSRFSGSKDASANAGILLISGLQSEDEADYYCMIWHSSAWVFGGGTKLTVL
VH: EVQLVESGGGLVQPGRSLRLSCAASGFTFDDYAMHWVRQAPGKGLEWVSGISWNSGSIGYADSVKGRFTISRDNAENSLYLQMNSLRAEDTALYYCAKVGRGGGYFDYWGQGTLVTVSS

The parent's heavy chain CDRs are GFTFDDYAMH, GISWNSGSIGYADSVK, VGRGGGYFDY; each variant's own CDRs replace them letter for letter. All variants listed here change W53 of the VH, counted from its first residue. Numbers give log10(Kd / nM), so 0 is 1 nM and 3 is 1 µM. Smaller is tighter. A mean of the replicates is given; it leaves out those without a signal. A pair that was not seen in any replicate is written "not detected"; this usually means weak binding, but a binder can also be missed. The list is sorted by this average, lowest first, undetected variants last. Empty control strains, which show no peptide, gave a signal in 21% of pairings with library AAYL51; the median was 4.54 and 95% of these signals were weaker than 3.26. No background was subtracted. For each scFv, signals with the empty controls are counted beside the result. In this assay the parent's reference entry averaged 1.86; its copy inside this library read 0.88.

CDR-H1	CDR-H2	CDR-H3	log10 Kd (nM), mean	seen in	control signals
GFTFMDYAMH	GISFNSGSIGYADPVK	VGRGGGYFDY	0.63	3/3	0/9
GFTFLNYAMH	GISHNSGSIGYADSVK	VGRGGGYFDY	0.79	3/3	1/9
GFTFDDYAMH	GISQNSGSIGYADAVK	VFRGGGYFDY	0.86	3/3	2/9
GFMFHDYAMH	GISMNSGSIGYADSVK	VGRGGGYFDY	0.91	3/3	1/9
GFTFDDYAMH	GISINSGSIGYADSVK	VGRGGGYFDY	1.02	3/3	0/9
GFTFDDYAMH	GIAINSGSIGYADSVK	VGRGKGYFDY	1.20	3/3	0/9
GFTFDDYAMH	GISANSGSIGYADSVK	VGRGGGYFDY	1.53	3/3	1/9
GFTFDDYAMH	GISPNSKSIGYADSVK	VGRGGGYFDY	1.90	3/3	6/9
GFTFDDYAMH	GISHNSGSVGYADSVS	VGRGGGYFDY	2.41	3/3	2/9
GFTFDDYAMH	GISGNSGSIGYADSVC	VGRGGGYFDY	2.42	3/3	3/9
GFTFDDYAMH	GISYMSGSIGYADSVK	VGRGGGYFDY	3.28	3/3	3/9
IFTFDDYAMH	GISCNSGSIGYADSVK	VGRGGGYFDY	3.41	2/3	2/9
GFTFDDYAMH	GVSLNSGSIGYADSVK	VGRGGGYFHY	3.59	1/3	1/9
GFTFDDYAMH	GHSMNSQSIGYADSVK	VGRGGGYFDY	3.62	2/3	2/9
GFTFDDYAMH	GIAANSGSIKYADSVK	VGRGGGYFDY	3.83	1/3	0/9
GFTFDDYAMG	GISKNSGSIGYADSVK	VGRGGGPFDY	3.84	1/3	1/9
GFTFDDYAMH	GISKNPGSIGYADSVK	VGRGGGYKDY	4.04	1/3	0/9
GFTFDDYAMH	GISDNSGSIGYADSVK	MGRGGGYFDR	4.08	1/3	4/9
GFTFDGYAMH	GISENSGSEGYADSVK	VGRGGGYFDY	4.13	1/3	0/9
GFTFDGYAMH	GISHNSGSIGYADSVK	VGRGGGVFDY	4.15	2/3	6/9
GFTVDDYAMW	GISKNSGSIGYADSVK	VGRGGGYFDY	4.19	1/3	5/9
GFTFDDYAMH	GWSGNSGKIGYADSVK	VGRGGGYFDY	4.19	1/3	3/9
GFTFDDYAMH	GISCNSGQIGYADSVK	VGRCGGYFDY	4.23	2/3	2/9
GFTPDDYAMH	GISCNSGSIGSADSVK	VGRGGGYFDY	4.45	1/3	0/9
GFTFDDYAMH	GISNNMGSIGIADSVK	VGRGGGYFDY	4.60	1/3	1/9
GFTFDDYAMH	RISLGSGSIGYADSVK	VGRGGGYFDY	4.69	2/3	4/9
GFTFDDYAMH	SISSNSGSIGYADTVK	VGRGGGYFDY	4.78	3/3	2/9
GFTFHDYAMH	GISKNSGSIGYADSVK	VGRGGGYFDY	4.81	1/3	3/9
GFTFDDYAMH	GIIKNSGSIGYADSVK	VGRGSGYFDY	4.82	3/3	5/9
GFTFDDYAMH	GISKNSGSIGYADSRK	VGRGGGYNDY	4.95	3/3	5/9
GFTFDDYAMH	GISVNDGSIGYADSVK	VGNGGGYFDY	5.08	2/3	3/9
GFTFDDYAMH	GISRNSTSIGYADSVK	VTRGGGYFDY	5.12	1/3	1/9
GFTFDDYAMH	GISKASGSIGYADSVK	VTRGGGYFDY	5.26	1/3	2/9
GFTFDDYAMH	WHSPNSGSIGYADSVK	VGRGGGYFDY	5.41	1/3	1/9
GFTFDSYAMH	GISHNSGSIGYADSVK	VGRGGGYSDY	5.54	2/3	5/9
GFTFDDYAMH	GISVNSGSIAYADSVW	VGRGGGYFDY	5.68	2/3	3/9
GFTFDDYAMH	GISEMSGSIGYAYSVK	VGRGGGYFDY	5.90	2/3	6/9
GFTFDDYAMH	GISKNSGSIGYADSVK	VGRGGMYFDY	5.92	3/3	6/9
FFTFDDYAMH	GIEMNSGSIGYADSVK	VGRGGGYFDY	not detected	0/3	0/9
GFTFDDYAMH	GISDNLGTIGYADSVK	VGRGGGYFDY	not detected	0/3	0/9
GFTFDDYATH	GISYNSESIGYADSVK	VGRGGGYFDY	not detected	0/3	0/9
GFTFDDYAMH	GISMNSGSIGMADSVK	VGRGGGYQDY	not detected	0/3	1/9
GFTFDDYAMH	GIYFNSGSIGYADCVK	VGRGGGYFDY	not detected	0/3	1/9
IFTFDDYAMH	GISTNSGSIGYADSVK	VGRGGGYFDY	not detected	0/3	0/9
GFTFDDYAMH	GISKNSGSIGPDDSVK	VGRGGGYFDY	not detected	0/3	0/9
GFTFDDYAMH	GISCNSESIDYADSVK	VGRGGGYFDY	not detected	0/3	4/9
GFVFDDYAMH	GISENSGSIGYADSVK	VGRGGGYWDY	not detected	0/3	0/9
GFTPDDYAMH	GISTNSGSIGYLDSVK	VGRGGGYFDY	not detected	0/3	2/9
GFTFDDYAMH	GIHSNSGSIGYADSVK	WGRGGGYFDY	not detected	0/3	0/9
GFTFDDYAMH	GIMLNSGSIGYADSVK	VGRGGGYFDY	not detected	0/3	0/9
GFTFDDYAMH	GISCNSCSIGYADSVK	VGRGGHYFDY	not detected	0/3	0/9
GFMFDDYAMH	GISTNYGSIGYADSVK	VGRGGGYFDY	not detected	0/3	1/9
GFTADDYALH	GISGNSGSIGYADSVK	VGRGGGYFDY	not detected	0/3	0/9
GFTFDDYAMH	GISVNSGSIGYADSVF	VGRGKGYFDY	not detected	0/3	0/9
GDTFDDYAMH	SISKNSGSIGYADSVK	VGRGGGYFDY	not detected	0/3	1/9
GFMFDDLAMH	GISMNSGSIGYADSVK	VGRGGGYFDY	not detected	0/3	0/9
GFTFDDYAMR	GISENSGSIGYADSVK	VGRGGGTFDY	not detected	0/3	4/9
GFTFIDYAMH	GISSNSGSIGYRDSVK	VGRGGGYFDY	not detected	0/3	0/9
GFTIDDYAMH	GISVNSGSIGYADSVK	VGRGTGYFDY	not detected	0/3	0/9

The first 10 entries again:

CDR-H1	CDR-H2	CDR-H3	log10 Kd (nM), mean	seen in	control signals
GFTFMDYAMH	GISFNSGSIGYADPVK	VGRGGGYFDY	0.63	3/3	0/9
GFTFLNYAMH	GISHNSGSIGYADSVK	VGRGGGYFDY	0.79	3/3	1/9
GFTFDDYAMH	GISQNSGSIGYADAVK	VFRGGGYFDY	0.86	3/3	2/9
GFMFHDYAMH	GISMNSGSIGYADSVK	VGRGGGYFDY	0.91	3/3	1/9
GFTFDDYAMH	GISINSGSIGYADSVK	VGRGGGYFDY	1.02	3/3	0/9
GFTFDDYAMH	GIAINSGSIGYADSVK	VGRGKGYFDY	1.20	3/3	0/9
GFTFDDYAMH	GISANSGSIGYADSVK	VGRGGGYFDY	1.53	3/3	1/9
GFTFDDYAMH	GISPNSKSIGYADSVK	VGRGGGYFDY	1.90	3/3	6/9
GFTFDDYAMH	GISHNSGSVGYADSVS	VGRGGGYFDY	2.41	3/3	2/9
GFTFDDYAMH	GISGNSGSIGYADSVC	VGRGGGYFDY	2.42	3/3	3/9